Earlier results as cited in PMC6708598.

Target: GFP (Aequorea victoria) [GFP: P42212]

GFP (from UniProt P42212)
Kd: 100 µM
